{
  "sequences": {"note": "Chains of the proteins cited; added tags and fusions are not shown. Lines headed by an entry give the natural chain unless they say otherwise; changes in a name come on top.", "UniProt P0C5J4": "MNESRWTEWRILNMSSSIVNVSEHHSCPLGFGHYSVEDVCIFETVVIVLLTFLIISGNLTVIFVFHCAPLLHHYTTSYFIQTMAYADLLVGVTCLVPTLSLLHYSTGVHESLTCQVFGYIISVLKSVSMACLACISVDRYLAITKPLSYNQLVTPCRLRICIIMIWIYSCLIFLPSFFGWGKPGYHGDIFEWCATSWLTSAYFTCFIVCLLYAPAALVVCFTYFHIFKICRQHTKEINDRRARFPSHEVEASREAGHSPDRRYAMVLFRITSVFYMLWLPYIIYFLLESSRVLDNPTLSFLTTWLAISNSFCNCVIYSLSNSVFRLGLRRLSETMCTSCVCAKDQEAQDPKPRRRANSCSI"},
  "source": "ChEMBL document CHEMBL4732142",
  "about": "“Discovery of the First Druggable GPR52 Antagonist to Treat Huntington's Disease” (J Med Chem, 2021)",
  "key": {"[1]": {"target": "G-protein coupled receptor 52 (Mus musculus) (UniProt P0C5J4)", "test": "In-vivo antagonist activity at GPR52 in HdhQ140 mouse model with GPR52 knockdown assessed as decrease in aggregation of mHTT at 0.5 mM, icv", "format": "functional"}, "[2]": {"target": "G-protein coupled receptor 52 (Mus musculus) (UniProt P0C5J4)", "test": "In-vivo antagonist activity at GPR52 in HdhQ140 mouse model with GPR52 knockdown assessed as decrease in soluble mHTT levels at 0.5 mM, icv", "format": "functional"}, "[3]": {"target": "G-protein coupled receptor 52 (Mus musculus) (UniProt P0C5J4)", "test": "In-vivo antagonist activity at GPR52 in HdhQ140 mouse model with GPR52 knockdown assessed as decrease in aggregation of mHTT levels in striatum at 5 mg/kg, iv", "format": "functional, organism-based"}, "[4]": {"target": "G-protein coupled receptor 52 (Mus musculus) (UniProt P0C5J4)", "test": "In-vivo antagonist activity at GPR52 in HdhQ140 mouse model with GPR52 knockdown assessed as decrease in soluble mHTT levels in striatum at 5 mg/kg, iv", "format": "functional, organism-based"}, "[5]": {"target": "G-protein coupled receptor 52 (Mus musculus) (UniProt P0C5J4)", "test": "In-vivo antagonist activity at GPR52 in primary neuron from HdhQ140 mouse model with GPR52 knockdown assessed as decrease in mHTT levels", "format": "functional, tissue-based"}, "[6]": {"target": "G-protein coupled receptor 52 (Mus musculus) (UniProt P0C5J4)", "test": "In-vivo antagonist activity at GPR52 in HdhQ140 mouse model with GPR52 knockdown assessed as decrease in soluble mHTT levels in cortex at 5 mg/kg, iv", "format": "functional, organism-based"}, "[7]": {"target": "G-protein coupled receptor 52 (Mus musculus) (UniProt P0C5J4)", "test": "In-vivo antagonist activity at GPR52 in HdhQ140 mouse model with GPR52 knockdown assessed as decrease in aggregation of mHTT levels in cortex at 5 mg/kg, iv", "format": "functional, organism-based"}},
  "note": "The source made the active and inactive calls. The calls are words filed in the database; no cut-off is given here.",
  "data": [
    {"smiles": "O=C(/C=C/CCc1ccccc1)c1cccs1", "values": [
      {"measurement": "Activity", "setting": "[1]", "value": "Active"},
      {"measurement": "Activity", "setting": "[2]", "value": "Active"},
      {"measurement": "Activity", "setting": "[3]", "value": "Active"},
      {"measurement": "Activity", "setting": "[4]", "value": "Active"},
      {"measurement": "Activity", "setting": "[5]", "value": "Dose-dependent effect"},
      {"measurement": "Activity", "setting": "[6]", "value": "inactive"},
      {"measurement": "Activity", "setting": "[7]", "value": "inactive"}
    ]}
  ]
}
